Data from publication PMC8413131 (Oncogene, 2021).

System: wild-type AR (WT-AR)
Assay: PSA luciferase reporter, WT-AR in 293 cells
Type: cell-based
Settings: FBS conditions, 16 hours, Fig.2G

## CNC(=O)c1ccc(N2C(=S)N(c3ccc(C#N)c(C(F)(F)F)c3)C(=O)C2(C)C)cc1F [Enza, enzalutamide]
  WT-AR transcriptional activity: suppress
